We go through 37 compounds from PubChem BioAssay AID2642 (Johns Hopkins Ion Channel Center, 2010).

Protein sequences, listed by entry. Tags and fused reporters are not part of them.
UniProt P51787, whole entry: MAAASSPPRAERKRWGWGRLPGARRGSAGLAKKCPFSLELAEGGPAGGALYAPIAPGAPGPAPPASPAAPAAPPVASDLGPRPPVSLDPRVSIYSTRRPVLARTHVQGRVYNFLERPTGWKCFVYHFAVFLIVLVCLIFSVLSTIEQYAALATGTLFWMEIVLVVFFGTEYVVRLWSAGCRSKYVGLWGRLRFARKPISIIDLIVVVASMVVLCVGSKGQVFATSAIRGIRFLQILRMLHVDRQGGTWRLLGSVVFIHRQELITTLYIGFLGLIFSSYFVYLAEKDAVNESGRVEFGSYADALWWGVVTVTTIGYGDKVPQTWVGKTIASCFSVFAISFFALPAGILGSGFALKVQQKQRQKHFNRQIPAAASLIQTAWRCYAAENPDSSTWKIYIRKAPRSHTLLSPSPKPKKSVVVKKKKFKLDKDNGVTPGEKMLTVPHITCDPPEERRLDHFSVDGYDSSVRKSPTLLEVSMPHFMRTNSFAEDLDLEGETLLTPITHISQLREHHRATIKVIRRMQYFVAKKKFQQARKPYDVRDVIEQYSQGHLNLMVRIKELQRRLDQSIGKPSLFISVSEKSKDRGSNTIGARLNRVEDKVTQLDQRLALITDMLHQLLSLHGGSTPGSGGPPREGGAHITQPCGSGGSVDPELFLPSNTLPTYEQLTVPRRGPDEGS

The list shows a part of the results, in another mix than the full data. Some salts or complexes appear as unconnected parts, following the source record. The source made the active and inactive calls.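 How the source made its calls: active means compounds whose thallium flux B-score, printed positive for inhibition, exceeds three library SD while starting fluorescence stays within three; inactive means the rest.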

The target of this test is Potassium voltage-gated channel subfamily KQT member 1 (Homo sapiens) (UniProt P51787). Put plainly: inhibitors of human KCNQ1 channel, primary screen, cell-based, thallium flux, high-throughput (AID 2642).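 Further: channel opened by potassium depolarization with thallium stimulus after 20 min compound exposure.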 The settings on record: CHO-K1 KCNQ1, FluxOR thallium flux fluorescence, at 10 µM.
Take `Cc1ccccc1OP(=O)(Nc1ccccn1)Oc1ccccc1C`: the outcome was inactive. As for `CP(=O)(Nc1ccccc1)Oc1ccc(F)cc1` (configuration not stated), the result was inactive. In the case of `CCOc1ccc(C2=NCC(CBr)S2)cc1` (configuration not stated), the compound was called inactive. For `O=P1(Nc2nc3ccc(Cl)cc3s2)COc2ccccc2O1` (configuration not stated) the value was “inactive”; for `CC(C)c1ccc(OP(C)(=O)Nc2ccc(SC(F)(F)F)cc2)cc1` (configuration not stated), “inactive”; for `CC(C)(C)C(=O)NC(Sc1ccccc1)C(Cl)(Cl)Cl` (configuration not stated), “inactive”.

Consider `CP(=O)(Nc1ccccc1F)Oc1ccccc1` (configuration not stated), for which the compound was classed as inactive. Turning to `C[C@H]1OP(=O)(Oc2ccccc2)C[C@@H]2O[C@@H]21` (some centres not stated), the compound was classed as inactive. As to `C[C@@H]1C=CCP(=O)(Oc2ccccc2)O1` (some centres not stated), the outcome was inactive. `O=C(OCCN1CCN(CCOCc2ccccc2)CC1)C(O)(c1ccccc1)c1ccccc1`: the call was inactive. For `O=C(OC1CN2CCC1CC2)c1ccc([N+](=O)[O-])cc1` (configuration not stated), the call was inactive.

`CC(=O)c1ccc(N2CC2c2ccncc2)cc1` (configuration not stated): the outcome was inactive.

On to `CC(=O)Nc1ccc(Oc2c([N+](=O)[O-])cc([N+](=O)[O-])cc2[N+](=O)[O-])cc1`, for which the call was inactive.

Turning to `CC(=O)Nc1ccc([As](=O)(O)O)c(O)c1`, the compound was classed as inactive. With `COc1ccc2c(c1O)-c1c(O)c(OC)cc3c1[C@H](C2)[N+](C)(C)CC3.O=[N+]([O-])c1cc([N+](=O)[O-])c([O-])c([N+](=O)[O-])c1[O-]` the entry was “inactive”.

With `CC(C)C(=O)NC(Sc1ccccc1)C(Cl)(Cl)Cl` (configuration not stated), the call was inactive. `O=P(Nc1nccs1)(c1ccccc1)c1ccccc1`: the call was inactive. As for `CP(=O)(Nc1ccc(SC(F)(F)F)cc1)Oc1ccc(F)cc1` (configuration not stated), the outcome was inactive. For `c1nnnn1CCn1cnnn1` the value was “inactive”.

Turning to `CCOP(C)(=S)SCC(=O)NC(C)(CC)C(=O)O` (configuration not stated), the call was inactive. With `CP(=O)(Nc1ccc2c(c1)OCCO2)Oc1ccccc1` (configuration not stated) the entry was “inactive”.

Take `O=P(Nc1ccccn1)(c1ccc(Br)cc1)c1ccc(Br)cc1`: the call was inactive. On to `CN(C)C1(CNC(=O)c2ccc(Cl)c(S(N)(=O)=O)c2)CCCCC1`, for which the compound was classed as inactive. Take `COc1ccc(OP(C)(=O)Nc2cccc(Br)c2)cc1` (configuration not stated): the compound was classed as inactive. For `COc1ccc(NP(C)(=O)Oc2ccccc2OC)cc1` (configuration not stated) the value was “inactive”; for `C[C@H]1OP(=O)(Oc2ccccc2)[C@H](O)[C@H](O)[C@H]1N=[N+]=[N-]` (some centres not stated), “inactive”. Take `CN(C)CCOC(=O)C(O)(c1ccccc1)C1CCCCC1` (configuration not stated): the outcome was inactive. Regarding `O=P(Nc1nc2ccccc2s1)(c1ccccc1)c1ccccc1`, the compound was classed as inactive. Consider `O=[N+]([O-])c1cc([N+](=O)[O-])c(NCC2CCS(=O)(=O)C2)c([N+](=O)[O-])c1` (configuration not stated), for which the call was inactive. `Cc1cc(-c2cccc3ccccc23)c(C)cn1.O=[N+]([O-])c1cc([N+](=O)[O-])c(O)c([N+](=O)[O-])c1`: the result was inactive. For `O=[As](O)(c1ccccc1)c1ccc(O)cc1` the value was “inactive”; for `O=[N+]([O-])c1ncn(CCn2cnc([N+](=O)[O-])n2)n1`, “inactive”. `O=[N+]([O-])c1ccc(OP2(=O)COCCO2)cc1` (configuration not stated): the compound was called inactive. For the compound `CC(=O)NC(SC(=S)N(C)C)C(Cl)(Cl)Cl` (configuration not stated), the call was inactive. For `O=C(OC1CN2CCC1CC2)c1cccc(Cl)c1` (configuration not stated) the value was “inactive”; for `C(Cc1nn[nH]n1)Cc1nn[nH]n1`, “inactive”; for `Nc1ccc([As](=O)(O)c2ccc([N+](=O)[O-])cc2)cc1`, “inactive”.
